The text below walks through data of ChEMBL document CHEMBL1137289, “Structure-activity relationships of novel antibacterial translation inhibitors: 3,5-diamino-piperidinyl triazines” (Bioorg Med Chem Lett, 2006).

The MIC is the lowest concentration that inhibits growth of the organism. Read a high MIC as a less susceptible organism.

One assay concerns Escherichia coli. The conditions noted are these: ATCC 25922.
The test system of another assay is Staphylococcus aureus. The conditions noted are these: ATCC 25923.
The next assay deals with Pseudomonas aeruginosa. Kind of assay: Antibacterial activity against Pseudomonas aeruginosa ATCC 27853. Type of assay: functional.

Turning to GENTAMICIN, the MIC in the assay with Escherichia coli is under 0.5 µg/mL; with Staphylococcus aureus, under 0.5 µg/mL; in the assay with Pseudomonas aeruginosa, 0.5 µg/mL.
